Experimental data published in US4966916A (priority 1989, dated 1990).

Columns and labels:
[1] = test system: nicotine receptor, rat brain membranes; type: binding
[2] = target: nicotine receptor, rat brain membranes; settings: read-out: 3H-MCC Binding IC50

| Structure (SMILES) | binding affinity [1] | IC50 ([1]; read-out: 3H-Nicotine Binding IC50) [µM] | IC50 [2] [µM] |
| --- | --- | --- | --- |
| COC(=O)[C@H]1[C@@H](OC(=O)c2ccccc2)C[C@@H]2CC[C@H]1N2C [cocaine] | inactive | > 100 | > 100 |
| CCN(CC)CCOC(=O)c1ccc(N)cc1 [procaine] | some binding affinity |  |  |

Read-outs that look alike come from different tables or passages of the source.
